Tested on: TPR-Met/NIH3T3 cells
Test: In-vivo test: subcutaneous TPR-Met/NIH3T3 tumour in Balb/C mice, tumour volume
Settings: female Balb/C mice, 200 mg/kg daily by gastric tube, 9 days

SMILES: CN(C)CCCOC(=O)Nc1cccc(Cn2nc(-c3cc(F)cc(F)c3)ccc2=O)c1 [A56, 3-Dimethylaminopropyl {3-[3-(3,5-difluorophenyl)-6-oxo-6H-pyridazin-1-ylmethyl]phenyl}carbamate]
- antitumoural action (tumour volume): significant antitumoural action

Source: patent publication US8173653B2, “Pyridiazinone derivatives for the treatment of tumours” (Merck Patent Gesellschaft MIT Beschraenkter Haftung, priority 2005, dated 2012)
